Experimental data: patent US9266814B2, “Use of nitrooxy organic molecules in feed for reducing methane emission in ruminants, and/or to improve ruminant performance” (DSM IP ASSETS B.V., priority 2010, dated 2016)

Legend:
[1] = test system: methane production of dairy cows; assay: In vivo effect in dairy cows (indirect calorimeters); design: species or system Holstein X Friesian dairy cows
[2] = test system: methanogenesis in rumen liquor; assay: In vitro test for methane production (modified Hohenheim Forage value Test); format: cell-based; details: reduction in methane vs control, 8 hours at 39° C., average of two experiments

SMILES	Methane production, % of control values ([1]; 500 mg/d)	Methane production, % of control values ([1]; 2500 mg/d)	effect on methanogenesis (%) ([2]; 0.005% DM)	effect on methanogenesis (%) ([2]; 0.01% DM)	effect on methanogenesis (%) ([2]; 0.1% DM)
O=[N+]([O-])OCCCO [Compound 1, 3-Nitrooxypropanol]	93 % of control	90 % of control	–	–	–
O=[N+]([O-])OCCCCCO[N+](=O)[O-]	–	–	6%	45%	100%
